The entries are a selection whose mix differs from that of the whole data set. Calls of active or inactive are those of the source.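 Rule for the calls: active = inhibition above about 50% at the single tested dose (limit read from the data); inactive = the rest.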
Each compound was assayed against Sentrin-specific protease 6 (Homo sapiens) (UniProt Q9GZR1) (assay: SENP6 protease inhibitors, primary screen, biochemical, luminescence, uHTS (AID 2599;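 note: plate controls were DMSO wells with enzyme for no effect and DMSO wells lacking enzyme for full effect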)). Conditions: Recombinant SENP6 catalytic domain, aminoluciferin luminescence; at 10 µM; stronger effect = higher value.

The chains behind the UniProt entries cited, without tags or fusion partners. Residues count along the entry.
UniProt Q9GZR1, 628-1112 limits assumed: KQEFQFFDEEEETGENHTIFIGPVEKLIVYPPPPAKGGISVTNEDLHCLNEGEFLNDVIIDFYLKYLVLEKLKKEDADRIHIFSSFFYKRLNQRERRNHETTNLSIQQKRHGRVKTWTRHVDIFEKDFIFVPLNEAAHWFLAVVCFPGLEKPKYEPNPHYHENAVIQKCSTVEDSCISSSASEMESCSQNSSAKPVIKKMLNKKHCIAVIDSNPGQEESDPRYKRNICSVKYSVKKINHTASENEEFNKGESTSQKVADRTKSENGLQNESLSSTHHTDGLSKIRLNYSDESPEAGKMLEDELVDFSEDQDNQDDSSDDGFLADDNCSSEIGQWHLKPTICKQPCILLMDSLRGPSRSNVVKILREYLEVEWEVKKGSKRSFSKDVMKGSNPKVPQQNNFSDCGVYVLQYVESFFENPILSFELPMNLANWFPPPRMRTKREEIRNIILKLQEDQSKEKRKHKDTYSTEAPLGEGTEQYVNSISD

SMILES	inhibition
Cc1ccc(OP(=O)(Nc2ccc([N+](=O)[O-])cn2)Oc2ccc(C)cc2)cc1	inactive: -2.69%
